Literature values, collected in patent US20190022240A1, “Design of pH-Sensitive Oligopeptide Complexes For Drug Release Under Mildly Acidic Conditions” (University of Southern California, priority 2013, published 2019).

Conditions: in vivo

KLALKLALKALKAALKLA [MAP]
pharmacokinetic half-life: greater than 72 h
